Assays:
[1] = In vivo pharmacokinetics: plasma and brain exposure after IP administration; conditions: male C57BL/6 mice, IP 10 mg/kg
Male ICR mice = assay: Acute restraint stress - tail suspension test (TST); assay type: in vivo; conditions: ICR mice after 5 h acute restraint stress, IP; P-3 3, 10 mg/kg; P-8 3, 10, 30 mg/kg; vs vehicle
C57BL/6J mice = assay: Biotelemetry and head-twitch response (HTR) experiments; conditions: male C57BL/6 mice, SC, several doses (0.03 to 30 mg/kg)

SMILES	Plasma AUC0-last [1] [µM·h]	Cmax ([1]; read-out: Plasma Cmax) [µM]	Immobility time in tail suspension test (FIG. 6) (Male ICR mice)	Tolerability (temperature, locomotor activity, HTR; FIGS. 2-5) (C57BL/6J mice)
COc1ccc2[nH]nc(CCN(C)C)c2c1	1.94	7.66	decrease the immobility time of mice	
COc1ccc2[nH]cc(CCN(C)C)c2n1	1.37			well-tolerated
COc1nccc2[nH]cc(CCN(C)C)c12	1.63			
